Data taken from patent US20250340902A1, “GENE THERAPY FOR BVES-RELATED DISORDERS” (OHIO STATE INNOVATION FOUNDATION, priority 2022, published 2025).

Protein sequences, listed by entry. Tags and fused reporters are not part of them. Residues count along the entry.
UniProt Q6PHZ2, 2-499 limits assumed, stated change not applied: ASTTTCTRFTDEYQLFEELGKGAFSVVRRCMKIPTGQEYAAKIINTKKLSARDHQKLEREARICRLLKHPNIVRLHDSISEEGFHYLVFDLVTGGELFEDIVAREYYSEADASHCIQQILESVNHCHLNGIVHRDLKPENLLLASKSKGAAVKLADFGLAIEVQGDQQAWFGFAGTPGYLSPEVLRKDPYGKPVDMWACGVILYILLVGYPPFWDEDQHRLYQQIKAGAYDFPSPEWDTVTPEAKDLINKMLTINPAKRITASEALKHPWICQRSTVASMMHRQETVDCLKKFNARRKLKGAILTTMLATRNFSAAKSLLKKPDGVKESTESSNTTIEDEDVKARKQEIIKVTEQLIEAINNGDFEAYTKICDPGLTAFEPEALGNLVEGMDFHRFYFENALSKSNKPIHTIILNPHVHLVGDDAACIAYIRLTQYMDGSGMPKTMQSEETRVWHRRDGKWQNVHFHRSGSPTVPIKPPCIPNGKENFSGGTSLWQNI

Target: Calcium/calmodulin-dependent protein kinase type II subunit delta (Mus musculus) (UniProt Q6PHZ2)
Test: anti-HA co-IP from muscle, MS; CTRL 0

Substance “human BVES fused with 3xHA tag (from UniProt Q8NE79 1-360)” has an AAV9-BVES-HA (IP-MS count) of 7.
